For one assay, the target named is T1, human Kv1.1 (Homo sapiens, UniProt Q09470).
T1 construct: expressed in transfected cells; host or cells: HEK293
The assay is classed as cell-based.

The chains behind the UniProt entries cited, without tags or fusion partners.
UniProt Q09470, whole entry: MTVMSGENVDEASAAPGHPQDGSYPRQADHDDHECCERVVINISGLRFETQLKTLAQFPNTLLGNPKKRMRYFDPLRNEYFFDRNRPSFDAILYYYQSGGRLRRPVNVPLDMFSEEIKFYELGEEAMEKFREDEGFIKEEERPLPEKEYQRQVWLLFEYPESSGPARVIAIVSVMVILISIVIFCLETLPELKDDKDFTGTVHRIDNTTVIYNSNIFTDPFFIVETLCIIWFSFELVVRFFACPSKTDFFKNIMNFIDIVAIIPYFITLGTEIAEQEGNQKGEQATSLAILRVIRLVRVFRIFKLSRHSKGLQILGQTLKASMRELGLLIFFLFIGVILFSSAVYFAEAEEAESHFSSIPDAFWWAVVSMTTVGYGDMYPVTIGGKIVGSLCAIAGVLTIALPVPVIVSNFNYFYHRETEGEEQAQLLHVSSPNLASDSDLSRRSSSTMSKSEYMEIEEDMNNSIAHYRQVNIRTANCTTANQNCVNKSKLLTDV
UniProt P22001, whole entry: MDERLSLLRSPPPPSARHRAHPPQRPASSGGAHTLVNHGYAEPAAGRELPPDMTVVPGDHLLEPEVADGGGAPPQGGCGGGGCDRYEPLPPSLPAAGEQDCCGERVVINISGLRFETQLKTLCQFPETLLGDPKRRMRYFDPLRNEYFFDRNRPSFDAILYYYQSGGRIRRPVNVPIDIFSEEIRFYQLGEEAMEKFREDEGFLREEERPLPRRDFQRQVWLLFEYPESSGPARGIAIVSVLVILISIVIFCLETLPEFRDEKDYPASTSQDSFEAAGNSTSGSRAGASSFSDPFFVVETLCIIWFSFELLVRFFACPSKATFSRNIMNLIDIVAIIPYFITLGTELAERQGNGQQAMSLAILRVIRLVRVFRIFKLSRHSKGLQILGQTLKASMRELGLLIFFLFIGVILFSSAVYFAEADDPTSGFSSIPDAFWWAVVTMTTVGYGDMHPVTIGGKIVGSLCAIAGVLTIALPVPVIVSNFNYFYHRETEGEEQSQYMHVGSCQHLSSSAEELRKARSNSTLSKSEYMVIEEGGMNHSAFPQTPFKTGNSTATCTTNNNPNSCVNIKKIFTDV

A further assay addresses human Kv1.3 (Homo sapiens, UniProt P22001). It is filed as cell-based. On the set-up: host or cells: HEK293.

The structures appear in SMILES notation.

Consider `CC[C@H](C)[C@@H]1NC(=O)[C@H](CCCCN)NC(=O)[C@@H](NC(=O)[C@H](CCCCN)NC(=O)[C@@H](NC(=O)[C@H](CC(N)=O)NC(=O)[C@@H](NC(=O)[C@@H](NC(=O)[C@@H](NC(=O)CN)C(C)C)[C@@H](C)CC)[C@@H](C)CC)C(C)C)CSSC[C@@H]2NC(=O)[C@H](CCCCN)NC(=O)CNC(=O)[C@H](Cc3ccccc3)NC(=O)[C@H](CCCNC(=N)N)NC(=O)[C@H](CCSC)NC(=O)CNC(=O)[C@H](C)NC(=O)[C@H](CCCCN)NC(=O)[C@H](CCCCN)NC(=O)[C@@H]3CSSC[C@@H](C(=O)N[C@H](C(=O)N4CCC[C@H]4C(=O)N[C@@H](CCCCN)C(=O)O)[C@@H](C)O)NC(=O)[C@H](Cc4c[nH]cn4)NC(=O)[C@H](CSSC[C@H](NC(=O)[C@H](CCC(N)=O)NC(=O)[C@H](CCCNC(=N)N)NC(=O)[C@H](CO)NC1=O)C(=O)N[C@@H](CC(C)C)C(=O)N[C@@H](CCC(=O)O)C(=O)N1CCC[C@H]1C(=O)N3)NC(=O)[C@H](CCCCN)NC(=O)CNC(=O)[C@H](CC(N)=O)NC(=O)[C@H](CCSC)NC2=O` [OSK1, reference compound], for which, on human Kv1.1, the “Kv1.1 IC50 fold higher than Kv1.3 IC50 (Kv1.3 selectivity)” value is 5 fold. At human Kv1.3, this compound showed a hKv1.1/hKv1.3 of 4.
